The subject of this data set is Vero. The data set can be described thus: Cytotoxicity against african green monkey Vero cells up to 4.67 ug/ml. The note with it: chlorocebus sabaeus.

Regarding `NC(=O)c1cc[n+](CCCC[n+]2cccc(/C=N/O)c2)cc1.[Br-].[Br-]`, the Activity entry is listed as “Non-toxic”. With `O/N=C/c1ccc[n+](-c2ccc(-[n+]3cccc(/C=N/O)c3)s2)c1.[Cl-].[Cl-]`, the Activity entry is on record as “Non-toxic”. For the compound `O/N=C/c1cccc[n+]1CCCC[n+]1ccccc1/C=N/O.[Br-].[Br-]`, the Activity result is given as “Non-toxic”.

Consider `O/N=C/c1cccc[n+]1-c1ccc(-[n+]2ccccc2/C=N/O)s1.[Cl-].[Cl-]`, for which the Activity entry is given as “Non-toxic”. Under `CS(=O)(=O)[O-].CS(=O)(=O)[O-].O/N=C/c1cc[n+](COC[n+]2ccc(/C=N/O)cc2)cc1` stands “Non-toxic”; under `O/N=C/c1cccc[n+]1CCC[n+]1ccccc1/C=N/O.[Br-].[Br-]`, “Non-toxic”. Consider `NC(=O)c1cc[n+](-c2ccc(-[n+]3ccc(C(N)=O)cc3)o2)cc1.[Br-].[Br-]`, for which the Activity result is on record as “Non-toxic”. In the case of `NC(=O)c1cc[n+](CCCC[n+]2ccc(/C=N/O)cc2)cc1.[Br-].[Br-]`, the Activity entry is “Non-toxic”.

Turning to `C[n+]1ccccc1/C=N/O.[I-]`, the Activity entry was “Non-toxic”. Consider `O/N=C/c1cc[n+](CCCC[n+]2ccc(/C=N/O)cc2)cc1.[Br-].[Br-]`, for which the Activity result is recorded as “Non-toxic”. Consider `O/N=C/c1ccc[n+](CCCC[n+]2cccc(/C=N/O)c2)c1.[Br-].[Br-]`, for which the Activity entry was “Non-toxic”. `NC(=O)c1cc[n+](-c2ccc(-[n+]3cccc(/C=N/O)c3)s2)cc1.[Cl-].[Cl-]`: the Activity entry is on record as “Non-toxic”.

As for `O/N=C/c1cc[n+](-c2ccc(-[n+]3ccc(/C=N/O)cc3)s2)cc1.[Cl-].[Cl-]`, the Activity result is reported as “Non-toxic”.

Consider `O/N=C/c1ccc[n+](-c2cc(-[n+]3cccc(/C=N/O)c3)on2)c1.[Br-].[Br-]`, for which the Activity result is listed as “Non-toxic”. As for `NC(=O)c1cc[n+](-c2ccc(-[n+]3ccc(/C=N/O)cc3)s2)cc1.[Cl-].[Cl-]`, the Activity entry is reported as “Non-toxic”. Regarding `O/N=C/c1cc[n+](-c2ccc(-[n+]3ccc(/C=N/O)cc3)o2)cc1.[Br-].[Br-]`, the Activity result is recorded as “Non-toxic”. `O/N=C/c1cc[n+](-c2cc(-[n+]3ccc(/C=N/O)cc3)on2)cc1.[Br-].[Br-]`: the Activity entry is “Non-toxic”. Under `NC(=O)c1cc[n+](CCC[n+]2ccccc2/C=N/O)cc1.[Br-].[Br-]` stands “Non-toxic”; under `O/N=C/c1ccc[n+](-c2ccc(-[n+]3cccc(/C=N/O)c3)o2)c1.[Br-].[Br-]`, “Non-toxic”; under `NC(=O)c1cc[n+](CCCC[n+]2ccccc2/C=N/O)cc1.[Br-].[Br-]`, “Non-toxic”. On to `NC(=O)c1cc[n+](CCC[n+]2ccc(/C=N/O)cc2)cc1.[Br-].[Br-]`, for which the Activity entry was “Non-toxic”. For the compound `CS(=O)(=O)[O-].CS(=O)(=O)[O-].O/N=C\c1ccc[n+](COC[n+]2cccc(/C=N/O)c2)c1`, the Activity result is recorded as “Non-toxic”. Regarding `O/N=C/c1cc[n+](CCC[n+]2ccc(/C=N/O)cc2)cc1.[Br-].[Br-]`, the Activity entry is on record as “Non-toxic”. Regarding `CS(=O)(=O)[O-].CS(=O)(=O)[O-].O/N=C/c1cccc[n+]1COC[n+]1ccccc1/C=N/O`, the Activity result is “Non-toxic”. Then `O/N=C/c1cccc[n+]1-c1cc(-[n+]2ccccc2/C=N/O)on1.[Br-].[Br-]`, with “Non-toxic”. As for `NC(=O)c1cc[n+](CCC[n+]2cccc(/C=N/O)c2)cc1.[Br-].[Br-]`, the Activity result is listed as “Non-toxic”.

For `O/N=C/c1cccc[n+]1-c1ccc(-[n+]2ccccc2/C=N/O)o1.[Br-].[Br-]`, the Activity result is “Non-toxic”. For the compound `O/N=C\c1ccc[n+](CCC[n+]2cccc(/C=N/O)c2)c1.[Br-].[Br-]`, the Activity entry was “Non-toxic”.

(Values after ChEMBL document CHEMBL1157721, “Bisquaternary pyridinium oximes: Comparison of in vitro reactivation potency of compounds bearing aliphatic linkers and heteroaromatic linkers for paraoxon-inhibited electric eel and recombinant human acetylcholinesterase” (2010).)
